The results in this text go back to ChEMBL document CHEMBL1156633, “Discovery of novel and long acting muscarinic acetylcholine receptor antagonists” (J Med Chem, 2008).

Chains of the proteins cited; added tags and fusions are not shown. Lines headed by an entry give the natural chain unless they say otherwise; changes in a name come on top.
UniProt P11229: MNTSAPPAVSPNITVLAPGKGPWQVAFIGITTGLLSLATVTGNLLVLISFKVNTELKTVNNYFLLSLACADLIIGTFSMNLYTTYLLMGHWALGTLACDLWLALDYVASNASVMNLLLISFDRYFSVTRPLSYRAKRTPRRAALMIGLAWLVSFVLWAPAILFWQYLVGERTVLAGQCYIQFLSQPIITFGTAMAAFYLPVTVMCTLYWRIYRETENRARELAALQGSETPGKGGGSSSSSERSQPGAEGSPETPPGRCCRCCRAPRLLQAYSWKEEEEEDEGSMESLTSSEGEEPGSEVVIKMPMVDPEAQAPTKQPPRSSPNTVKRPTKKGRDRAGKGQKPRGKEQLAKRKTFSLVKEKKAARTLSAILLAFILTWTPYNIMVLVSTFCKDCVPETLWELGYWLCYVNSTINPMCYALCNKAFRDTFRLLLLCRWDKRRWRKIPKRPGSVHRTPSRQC
UniProt P08172, whole entry: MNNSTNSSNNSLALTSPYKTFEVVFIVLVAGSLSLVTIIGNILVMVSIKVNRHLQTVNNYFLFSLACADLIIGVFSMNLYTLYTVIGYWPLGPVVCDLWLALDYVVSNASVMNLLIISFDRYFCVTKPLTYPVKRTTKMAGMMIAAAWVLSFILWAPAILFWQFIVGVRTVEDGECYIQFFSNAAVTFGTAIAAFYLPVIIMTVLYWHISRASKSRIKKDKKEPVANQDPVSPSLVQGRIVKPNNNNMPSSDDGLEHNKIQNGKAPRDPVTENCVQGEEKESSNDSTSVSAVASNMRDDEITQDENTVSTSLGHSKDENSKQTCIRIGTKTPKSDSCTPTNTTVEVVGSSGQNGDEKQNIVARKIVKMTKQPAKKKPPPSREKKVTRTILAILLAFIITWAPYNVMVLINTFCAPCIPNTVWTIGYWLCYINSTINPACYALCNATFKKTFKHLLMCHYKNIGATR

In assay [1] the target is T1, Muscarinic acetylcholine receptor M3 (Homo sapiens, UniProt P20309). In words: Displacement of [3H]N-methyl Scopolamine from human muscarinic acetylcholine M3 receptor expressed in CHO cells by scintillation proximity assay. The assay is classed as cell-based.
The target of assay [2] is Muscarinic acetylcholine receptor M1 (Homo sapiens, UniProt P11229). Kind of assay: Antagonist activity at human muscarinic acetylcholine M1 receptor expressed in CHO cells assessed as inhibition of acetylcholine-induced calcium mobilization by single concentration kinetic FLIPR assay. It counts as functional, cell-based. To be noted: read-out: pA2 (converted). The procedure, abridged:
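CHO cells stably expressing the human recombinant muscarinic receptor subtype, in a fluorometric imaging plate reader (FLIPR) assay. Read-out is inhibition of acetylcholine-mediated intracellular Ca2+ mobilization. Results are the mean of at least two determinations.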
In general terms: Calcium flux is commonly read through the fluorescence of an indicator in the cells.

Assay [3] addresses Muscarinic acetylcholine receptor M2 (Homo sapiens, UniProt P08172). In words: Displacement of [3H]N-methyl Scopolamine from human muscarinic acetylcholine M2 receptor expressed in CHO cells coexpressed with Gqi5 by scintillation proximity assay. The assay is classed as cell-based. In general terms: Loss of bound radioactivity is the signal in a displacement assay; it reports binding, not function.

Assay [4] concerns the target T1, Muscarinic acetylcholine receptor M3. In words: Displacement of [3H]N-methyl Scopolamine from human muscarinic acetylcholine M3 receptor expressed in CHO cells by scintillation proximity assay.

On to `CC(C)OC(=O)c1ccc(NC(=O)N[C@@H](Cc2ccc(O)cc2)C(=O)N[C@H]2CCC[N+](C)(Cc3cccc(O)c3)C2)cc1.[I-]` (some centres undefined), for which the Ki (as a rule, a measure of affinity in units of concentration, obtained from inhibition or displacement) in assay [1] is 31.6 nM; in assay [3], 3.16 nM; in assay [4], 0.316 nM. Further, the Kb in assay [2] is 0.126 nM.
